Protein sequences, listed by entry. Tags and fused reporters are not part of them. Lines headed by an entry give the natural chain unless they say otherwise; changes in a name come on top. Residues count along the entry.
UniProt O75116, 92-354, species assumed: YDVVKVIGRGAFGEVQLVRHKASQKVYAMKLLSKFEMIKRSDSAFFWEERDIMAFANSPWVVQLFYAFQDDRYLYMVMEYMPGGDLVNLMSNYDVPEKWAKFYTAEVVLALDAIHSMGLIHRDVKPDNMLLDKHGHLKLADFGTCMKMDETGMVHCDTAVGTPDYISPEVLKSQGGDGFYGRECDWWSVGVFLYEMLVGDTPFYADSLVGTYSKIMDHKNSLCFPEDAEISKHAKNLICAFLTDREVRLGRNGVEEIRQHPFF
UniProt P43490: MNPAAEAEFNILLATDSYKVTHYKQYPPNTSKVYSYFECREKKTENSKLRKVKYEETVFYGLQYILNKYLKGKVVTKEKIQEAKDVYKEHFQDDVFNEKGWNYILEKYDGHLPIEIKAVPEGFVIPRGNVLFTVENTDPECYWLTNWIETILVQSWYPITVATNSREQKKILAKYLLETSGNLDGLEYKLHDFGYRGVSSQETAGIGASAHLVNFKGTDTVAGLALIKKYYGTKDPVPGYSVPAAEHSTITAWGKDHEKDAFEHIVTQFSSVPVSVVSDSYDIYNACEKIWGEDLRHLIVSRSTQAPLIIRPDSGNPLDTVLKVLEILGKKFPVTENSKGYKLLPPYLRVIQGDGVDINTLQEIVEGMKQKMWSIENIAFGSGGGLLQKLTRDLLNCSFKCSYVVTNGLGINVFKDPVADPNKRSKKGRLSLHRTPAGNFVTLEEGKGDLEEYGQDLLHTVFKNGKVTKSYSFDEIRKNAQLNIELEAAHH

In US9302989B2 (priority 2010, dated 2016):

Target: ROCK2 (Homo sapiens (Human), UniProt O75116)
Assay: not given
Settings: read-out: ROCK2 HTRF Binding Ki

| Structure (SMILES) | Ki [nM] |
| --- | --- |
| O=C(NC1CC=C(c2n[nH]c(=O)c3ccccc23)CC1)N1Cc2ccc(CN3CCCC3)cc2C1 (centres unmarked) [Example 552, N-[4-(4-oxo-3,4-dihydrophthalazin-1-yl)cyclohex-3-en-1-yl]-5-(pyrrolidin-1-ylmethyl)-1,3-dihydro-2H-isoindole-2-carboxamide] | 3270 |
| O=C(Nc1ccc(-c2n[nH]c(=O)c3ccccc23)cc1)N1Cc2ccc(CN3CC[C@@H](F)C3)cc2C1 [Example 396, 5-{[(3R)-3-fluoropyrrolidin-1-yl]methyl}-N-[4-(4-oxo-3,4-dihydrophthalazin-1-yl)phenyl]-1,3-dihydro-2H-isoindole-2-carboxamide] | 182 |
| CN1CCN(Cc2ccc3c(c2)CN(C(=O)Nc2ccc(-c4n[nH]c(=O)c5ccccc45)cc2)C3)CC1 [Example 383, 5-[(4-methylpiperazin-1-yl)methyl]-N-[4-(4-oxo-3,4-dihydrophthalazin-1-yl)phenyl]-1,3-dihydro-2H-isoindole-2-carboxamide] | 3.61 |
| O=C(Nc1ccc(-c2n[nH]c(=O)c3cccc(C(F)(F)F)c23)cc1)N1Cc2ccccc2C1 [Example 388, N-{4-[4-oxo-8-(trifluoromethyl)-3,4-dihydrophthalazin-1-yl]phenyl}-1,3-dihydro-2H-isoindole-2-carboxamide] | 11.2 |
| CN1CCC(Oc2ccc3c(c2)CN(C(=O)Nc2ccc(-c4n[nH]c(=O)c5ccccc45)cc2)C3)CC1 [Example 395, 5-[(1-methylpiperidin-4-yl)oxy]-N-[4-(4-oxo-3,4-dihydrophthalazin-1-yl)phenyl]-1,3-dihydro-2H-isoindole-2-carboxamide] | 32.1 |
| N#Cc1ccc2c(c1)CN(C(=O)Nc1ccc(-c3c[nH]c(=O)c4ccccc34)cc1)C2 [Example 384, 5-cyano-N-[4-(1-oxo-1,2-dihydroisoquinolin-4-yl)phenyl]-1,3-dihydro-2H-isoindole-2-carboxamide] | 4.24 |
| O=C(NC1CC=C(c2c[nH]c(=O)c3ccccc23)CC1)N1Cc2ccccc2C1 (centres unmarked) [Example 550, N-[4-(1-oxo-1,2-dihydroisoquinolin-4-yl)cyclohex-3-en-1-yl]-1,3-dihydro-2H-isoindole-2-carboxamide] | 15.4 |
| O=C(Nc1ccc(-c2n[nH]c(=O)c3cccc(F)c23)cc1)N1Cc2ccccc2C1 [Example 378, N-[4-(8-fluoro-4-oxo-3,4-dihydrophthalazin-1-yl)phenyl]-1,3-dihydro-2H-isoindole-2-carboxamide] | 2.37 |
| O=C(Nc1ccc(-c2n[nH]c(=O)c3ccccc23)cc1)N1Cc2ccc(CN3CCCC3)cc2C1 [Example 380, N-[4-(4-oxo-3,4-dihydrophthalazin-1-yl)phenyl]-5-(pyrrolidin-1-ylmethyl)-1,3-dihydro-2H-isoindole-2-carboxamide] | 2.3 |
| O=C(Nc1ccc(-c2c[nH]c(=O)c3ccccc23)cc1)N1Cc2ccc(Cl)cc2C1 [Example 385, 5-chloro-N-[4-(1-oxo-1,2-dihydroisoquinolin-4-yl)phenyl]-1,3-dihydro-2H-isoindole-2-carboxamide] | 6.51 |
| O=C1NCc2c1cccc2-c1ccc(NC(=O)N2Cc3ccccc3C2)cc1 [Example 547, N-[4-(1-oxo-2,3-dihydro-1H-isoindol-4-yl)phenyl]-1,3-dihydro-2H-isoindole-2-carboxamide] | 179 |
| O=C(Nc1ccc(-c2n[nH]c(=O)c3ccccc23)cc1)N1Cc2ccc(CN3CC[C@H](F)C3)cc2C1 [Example 397, 5-{[(3S)-3-fluoropyrrolidin-1-yl]methyl}-N-[4-(4-oxo-3,4-dihydrophthalazin-1-yl)phenyl]-1,3-dihydro-2H-isoindole-2-carboxamide] | 138 |
| O=C(Nc1ccc(-c2n[nH]c(=O)c3cccc(C(F)(F)F)c23)cc1)N1Cc2ccc(CN3CCCC3)cc2C1 [Example 394, N-{4-[4-oxo-8-(trifluoromethyl)-3,4-dihydrophthalazin-1-yl]phenyl}-5-(pyrrolidin-1-ylmethyl)-1,3-dihydro-2H-isoindole-2-carboxamide] | 9.3 |
| O=C(Nc1ccc(-c2c[nH]c(=O)c3ccccc23)cc1)N1Cc2ccc(CN3CCCC3)cc2C1 [Example 387, N-[4-(1-oxo-1,2-dihydroisoquinolin-4-yl)phenyl]-5-(pyrrolidin-1-ylmethyl)-1,3-dihydro-2H-isoindole-2-carboxamide] | 1.39 |
| COc1ccc2c(c1)CN(C(=O)Nc1ccc(-c3c[nH]c(=O)c4ccccc34)cc1)C2 [Example 382, 5-methoxy-N-[4-(1-oxo-1,2-dihydroisoquinolin-4-yl)phenyl]-1,3-dihydro-2H-isoindole-2-carboxamide] | 6.14 |
| O=C(Nc1ccc(-c2n[nH]c(=O)c3ccccc23)cc1)N1Cc2ccc(CN3CCC3)cc2C1 [Example 398, 5-(azetidin-1-ylmethyl)-N-[4-(4-oxo-3,4-dihydrophthalazin-1-yl)phenyl]-1,3-dihydro-2H-isoindole-2-carboxamide] | 2.2 |
| CN(C)Cc1ccc2c(c1)CN(C(=O)Nc1ccc(-c3c[nH]c(=O)c4ccccc34)cc1)C2 [Example 389, 5-[(dimethylamino)methyl]-N-[4-(1-oxo-1,2-dihydroisoquinolin-4-yl)phenyl]-1,3-dihydro-2H-isoindole-2-carboxamide] | 1.74 |
| CCN(CC)Cc1ccc2c(c1)CN(C(=O)Nc1ccc(-c3c[nH]c(=O)c4ccccc34)cc1)C2 [Example 390, 5-[(diethylamino)methyl]-N-[4-(1-oxo-1,2-dihydroisoquinolin-4-yl)phenyl]-1,3-dihydro-2H-isoindole-2-carboxamide] | 2.45 |
| O=C(Nc1ccc(-c2n[nH]c(=O)c3c2CCCC3)cc1)N1Cc2ccccc2C1 [Example 377, N-[4-(4-oxo-3,4,5,6,7,8-hexahydrophthalazin-1-yl)phenyl]-1,3-dihydro-2H-isoindole-2-carboxamide] | 19.5 |
| CN1CCN(Cc2ccc3c(c2)CN(C(=O)Nc2ccc(-c4c[nH]c(=O)c5ccccc45)cc2)C3)CC1 [Example 391, 5-[(4-methylpiperazin-1-yl)methyl]-N-[4-(1-oxo-1,2-dihydroisoquinolin-4-yl)phenyl]-1,3-dihydro-2H-isoindole-2-carboxamide] | 0.49 |
| O=C(NC1CC=C(c2n[nH]c(=O)c3ccccc23)CC1)N1Cc2ccccc2C1 (centres unmarked) [Example 551, N-[4-(4-oxo-3,4-dihydrophthalazin-1-yl)cyclohex-3-en-1-yl]-1,3-dihydro-2H-isoindole-2-carboxamide] | 18.4 |
| O=C(Nc1ccc(-c2c[nH]c(=O)c3ccccc23)cc1)N1Cc2ccc(CN3CCOCC3)cc2C1 [Example 381, 5-(morpholin-4-ylmethyl)-N-[4-(1-oxo-1,2-dihydroisoquinolin-4-yl)phenyl]-1,3-dihydro-2H-isoindole-2-carboxamide] | 4.12 |
| O=C(Nc1ccc(-c2cncc3ccccc23)cc1)N1Cc2ccccc2C1 [Example 375, N-[4-(isoquinolin-4-yl)phenyl]-1,3-dihydro-2H-isoindole-2-carboxamide] | 4060 |
| O=C(Nc1ccc(-c2n[nH]c(=O)c3ccccc23)cc1)N1Cc2ccncc2C1 [Example 548, N-[4-(4-oxo-3,4-dihydrophthalazin-1-yl)phenyl]-1,3-dihydro-2H-pyrrolo[3,4-c]pyridine-2-carboxamide] | 14 |
| O=C(Nc1ccc(-c2c[nH]c(=O)c3ccccc23)cc1)N1Cc2ccccc2C1 [Example 376, N-[4-(1-oxo-1,2-dihydroisoquinolin-4-yl)phenyl]-1,3-dihydro-2H-isoindole-2-carboxamide] | 5.26 |
| O=C(Nc1ccc(-c2n[nH]c(=O)c3ccccc23)cc1)N1Cc2ccccc2C1 [Example 374, N-[4-(4-oxo-3,4-dihydrophthalazin-1-yl)phenyl]-1,3-dihydro-2H-isoindole-2-carboxamide] | 3.6 |
| O=C(Nc1ccc(-c2n[nH]c(=O)c3cccn23)cc1)N1Cc2ccc(CN3CCCC3)cc2C1 [Example 400, N-[4-(1-oxo-1,2-dihydropyrrolo[1,2-d][1,2,4]triazin-4-yl)phenyl]-5-(pyrrolidin-1-ylmethyl)-1,3-dihydro-2H-isoindole-2-carboxamide] | 25.1 |
| O=C(Nc1ccc(-c2n[nH]c(=O)c3ccccc23)cc1)N1Cc2cccnc2C1 [Example 549, N-[4-(4-oxo-3,4-dihydrophthalazin-1-yl)phenyl]-5,7-dihydro-6H-pyrrolo[3,4-b]pyridine-6-carboxamide] | 3.1 |
| O=C1Cc2ccccc2C(c2ccc(NC(=O)N3Cc4ccccc4C3)cc2)=NN1 [Example 386, N-[4-(4-oxo-4,5-dihydro-3H-2,3-benzodiazepin-1-yl)phenyl]-1,3-dihydro-2H-isoindole-2-carboxamide] | 10000 |

System: collagen-induced arthritis
Assay: not given
Settings: in vivo; cited from earlier work

| Structure (SMILES) | efficacy in animal models of arthritis |
| --- | --- |
| O=C(/C=C/c1cccnc1)NCCCCC1CCN(C(=O)c2ccccc2)CC1 [FK866] | efficacious |

System: experimental autoimmune encephalomyelitis (EAE)
Assay: not given
Settings: in vivo; cited from earlier work

| Structure (SMILES) | manifestations of experimental autoimmune encephalomyelitis |
| --- | --- |
| O=C(/C=C/c1cccnc1)NCCCCC1CCN(C(=O)c2ccccc2)CC1 [FK866] | ameliorated the manifestations |

Target: NAMPT (Homo sapiens (Human), UniProt P43490)
Assay: biochemical
Settings: not given

| Structure (SMILES) | IC50 [nM] |
| --- | --- |
| O=C(CC12CC3CC(CC(C3)C1)C2)N1CC(Oc2ccc(NC(=O)N3Cc4ccncc4C3)cc2)C1 [Example 1044] | 6.21 |
